The values below come from PMC7070898 (Clinical and Translational Science, 2019).

Series [1] in a line: Holter ECG, concentration-QTcF, by-time point and categorical analysis. To be noted: single doses 25–500 mg. The series is classed as in vivo, human.
Series [2] in a line: Plasma pharmacokinetics, noncompartmental, SAD/MAD trial. The class given is in vivo, human. To be noted: for Tmax: human, in vivo; for CL/F / Vz/F: geometric mean (CV% GM).
The mark [3] stands for this setting: single dose 350 mg, part 1, N 6.
The mark [4] stands for this setting: single dose 500 mg, part 1, N 6.

Where only a bound is given, the exact number is not on record here.

By Tmax is commonly meant the time at which the peak concentration occurs.

In the case of `C=CC(=O)N1CCC(CNc2ncnc(N)c2-c2ccc(Oc3ccccc3)cc2)CC1` [evobrutinib], in series [1], the “impact of evobrutinib concentration on QTc (concentration‐QTcF analysis)” value is “did not prolong QTcF”. Also, in series [2] (higher single doses (350 and 500 mg)), the “mean terminal phase concentration as % of Cmax 24 hours postdose” value is recorded as < 1 % of Cmax. Further, the Tmax in series [2] was 30 to 60 min; in series [2] (50 mg, Tmax, single dose 50 mg, part 1, N 6, median and range) it was 30 min; in series [2] (75 mg, Tmax, multiple-dose study day 1, 75 mg, N 9, median and range), 30 min; in series [2] (100 mg, Tmax, single dose 100 mg, part 1, N 6, median and range), 30 min; in series [2] (200 mg, Tmax, multiple-dose study day 1, 200 mg, N 9, median and range), 30 min; in series [2] (200 mg, Tmax, multiple-dose study day 14, 200 mg once daily, N 9, median and range) it was 30 min. The Tmax in series [2] (200 mg, Tmax, single dose 200 mg, part 1, N 6, median and range) is 30 min; in series [2] (500 mg, Tmax, single dose 500 mg, part 1, N 6, median and range) it was 30 min. For the same molecule, the CL/F in series [2] (multiple-dose study day 1, 25 mg, N 9) is on record as 3,390 (38.7) mL/minute; in series [2] (multiple-dose study day 1, 75 mg, N 9) it was 3,850 (37.5) mL/minute; in series [2] (multiple-dose study day 1, 200 mg, N 9), 3,000 (24.6) mL/minute; in series [2] (single dose 25 mg, part 1, N 6) it was 4,000 (53.6) mL/minute; in series [2] (single dose 50 mg, part 1, N 6), 2,550 (35.7) mL/minute; in series [2] (single dose 100 mg, part 1, N 6), 3,840 (30.3) mL/minute. Moreover, the CL/F is given as 3,900 (27.0) mL/minute in series [2] (single dose 200 mg, part 1, N 6); 3,050 (41.7) mL/minute in series [2] (setting [3]); 2,590 (25.0) mL/minute in series [2] (setting [4]). Further, the Vz/F is 1,800 (136) L in series [2] (setting [3]) and 1,490 (64.6) L in series [2] (setting [4]). For the same molecule, in series [2] (single dosing, part 1), the “plasma concentration as % of Cmax within 8 hours” value is recorded as < 1 % of Cmax.
